Data: patent US20050196743A1

Sequences of proteins named here, by UniProt entry; tags and fusion partners are left off. A change or cut given only in a name is not applied to a line headed by its entry.
UniProt P01149: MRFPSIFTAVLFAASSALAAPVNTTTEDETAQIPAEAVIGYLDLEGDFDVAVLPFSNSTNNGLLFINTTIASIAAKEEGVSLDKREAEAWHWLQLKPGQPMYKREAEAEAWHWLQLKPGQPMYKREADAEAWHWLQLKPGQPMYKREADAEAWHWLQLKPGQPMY

Molecular target: T1, endogenous yeast receptor Ste2p (Saccharomyces cerevisiae) (UniProt D6VTK4)
T1 sequence (looked up): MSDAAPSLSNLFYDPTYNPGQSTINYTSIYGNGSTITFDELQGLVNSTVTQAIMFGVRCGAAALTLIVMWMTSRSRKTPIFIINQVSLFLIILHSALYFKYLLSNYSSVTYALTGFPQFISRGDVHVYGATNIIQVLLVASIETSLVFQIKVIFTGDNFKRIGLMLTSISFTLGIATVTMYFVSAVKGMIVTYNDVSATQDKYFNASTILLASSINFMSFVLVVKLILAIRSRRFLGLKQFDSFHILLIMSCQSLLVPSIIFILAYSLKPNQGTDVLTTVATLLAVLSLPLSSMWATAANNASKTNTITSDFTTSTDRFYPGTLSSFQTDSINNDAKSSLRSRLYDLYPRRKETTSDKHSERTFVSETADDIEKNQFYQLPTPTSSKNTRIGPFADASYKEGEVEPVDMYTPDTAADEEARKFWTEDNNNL
Assay: cell-based or functional assay

## α-factor (from UniProt P01149 90-102) (peptide)
  EC50 of induction of the Aga2 protein (ELISA-like assay of DTT extracts detected with EndoH-treated Sag1p^21-352, anti-Xpress and anti-mouse IgG-HRP): 37 nM
